Key:
CYP1A2 = CYP1A2 (Homo sapiens (Human), UniProt P05177); experiment: P450 inhibition assay CYP1A2
CYP2C9 = CYP2C9 (Homo sapiens (Human), UniProt P11712); experiment: P450 inhibition assay CYP2C9
CYP2C19 = CYP2C19 (Homo sapiens (Human), UniProt P33261); experiment: P450 inhibition assay CYP2C19
[1] = Test for metabolic stability, liver microsomes; details: rat, pH 7.4

Protein sequences, listed by entry. Tags and fused reporters are not part of them.
UniProt P05177, whole entry: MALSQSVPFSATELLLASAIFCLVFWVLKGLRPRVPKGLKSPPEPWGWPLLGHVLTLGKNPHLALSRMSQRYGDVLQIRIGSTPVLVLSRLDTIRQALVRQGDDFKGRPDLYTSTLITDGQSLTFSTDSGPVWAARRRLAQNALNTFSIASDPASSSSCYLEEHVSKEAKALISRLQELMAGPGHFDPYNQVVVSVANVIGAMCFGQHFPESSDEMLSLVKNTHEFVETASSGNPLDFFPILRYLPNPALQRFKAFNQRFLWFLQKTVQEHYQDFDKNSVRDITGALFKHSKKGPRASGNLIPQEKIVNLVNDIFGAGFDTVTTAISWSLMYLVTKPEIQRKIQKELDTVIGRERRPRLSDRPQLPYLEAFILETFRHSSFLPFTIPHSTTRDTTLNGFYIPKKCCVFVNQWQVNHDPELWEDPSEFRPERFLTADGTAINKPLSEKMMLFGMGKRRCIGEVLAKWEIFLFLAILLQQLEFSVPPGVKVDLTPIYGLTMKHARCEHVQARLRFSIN
UniProt P11712, whole entry: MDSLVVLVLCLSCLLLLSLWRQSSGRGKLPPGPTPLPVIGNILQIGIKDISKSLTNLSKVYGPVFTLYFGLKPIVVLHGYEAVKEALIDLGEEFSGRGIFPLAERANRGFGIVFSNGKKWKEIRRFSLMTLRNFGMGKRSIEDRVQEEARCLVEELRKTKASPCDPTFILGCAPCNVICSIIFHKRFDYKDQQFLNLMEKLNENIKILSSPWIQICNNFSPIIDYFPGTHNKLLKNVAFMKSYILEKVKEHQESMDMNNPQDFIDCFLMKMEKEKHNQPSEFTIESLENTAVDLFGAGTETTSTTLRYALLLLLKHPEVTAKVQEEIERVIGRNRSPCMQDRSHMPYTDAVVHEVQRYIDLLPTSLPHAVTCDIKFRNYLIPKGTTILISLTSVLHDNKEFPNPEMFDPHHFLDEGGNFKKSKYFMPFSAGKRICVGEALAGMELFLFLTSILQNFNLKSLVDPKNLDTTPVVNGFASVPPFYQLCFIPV
UniProt P33261, whole entry: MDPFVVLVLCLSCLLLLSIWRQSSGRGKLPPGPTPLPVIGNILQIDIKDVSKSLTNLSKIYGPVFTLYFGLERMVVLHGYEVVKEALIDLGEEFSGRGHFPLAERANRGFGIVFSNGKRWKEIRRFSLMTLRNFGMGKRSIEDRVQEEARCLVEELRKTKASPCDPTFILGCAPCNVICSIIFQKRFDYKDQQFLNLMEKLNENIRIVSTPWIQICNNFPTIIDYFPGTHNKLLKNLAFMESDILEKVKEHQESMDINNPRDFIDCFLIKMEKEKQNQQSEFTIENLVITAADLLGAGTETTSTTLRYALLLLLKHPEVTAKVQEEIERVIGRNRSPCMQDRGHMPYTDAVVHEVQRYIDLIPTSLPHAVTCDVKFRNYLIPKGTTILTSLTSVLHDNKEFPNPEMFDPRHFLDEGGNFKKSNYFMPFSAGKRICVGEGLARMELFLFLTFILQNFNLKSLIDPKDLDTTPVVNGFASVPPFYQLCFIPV

## COc1ccc(-c2c(O)ccc3cc(-c4cccc(O)c4)ccc23)cn1 [Compound 62, 6-(3-Hydroxyphenyl)-1-(6-methoxypyridin-3-yl)naphthalene-2-ol]
CYP1A2
  IC50: 10500 ± 290 nM
CYP2C9
  IC50: 1250 ± 70 nM
CYP2C19
  IC50: 680 ± 56 nM
[1]
  half-life: 49.8 min

From US8546392B2, “17Beta-hydroxysteroid dehydrogenase type 1 inhibitors for the treatment of hormone-related diseases” (Universitaet des Saarlandes, priority 2008, dated 2013)
